The target in the assay is URAT1 (Homo sapiens (Human), UniProt Q96S37). The assay can be described thus: URAT1-model assay, 14C-uric acid transport in HEK293/URAT1-model cells. It counts as cell-based. On the procedure:
HEK293 human embryonic kidney cells (ATCC #CRL-1573) were propagated in EMEM tissue culture medium as described by ATCC in an atmosphere of 5% C02 and 95% air. Transfections of HEK293 cells with a model URAT1 construct was performed using L2000 transfection reagent (Invitrogen) as described by the manufacturer. After 24 h the transfected cells were split into 10 cm tissue culture plates and grown for 1 day after which the medium was replaced with fresh growth medium containing G418 (Gibco) at 0.5 mg/ml final concentration. Drug-resistant colonies were selected after approximately 8 days and then tested for ^14C-uric acid transport activity. The HEK293/URAT1-model cells are plated on Poly-D-Lysine Coated 96-well Plates at a density of 125,000 cells per well.
Cells were grown overnight (20-26 hours) at 37° C. in an incubator. Plates were allowed to come to room temperature and media was washed out with one wash of 250 μl of Wash Buffer (125 mM Na Gluconate, 10 mM Hepes ph 7.3). Compound or vehicle is added in assay buffer with ^14C-uric acid for a final concentration of 125 μM Uric Acid with a specific activity of 54 mCi/mmol. […] Plates are then read on the TopCount Plate Reader and an EC50 value generated. […]

Sequences of proteins named here, by UniProt entry; tags and fusion partners are left off.
UniProt Q96S37, whole entry, species assumed: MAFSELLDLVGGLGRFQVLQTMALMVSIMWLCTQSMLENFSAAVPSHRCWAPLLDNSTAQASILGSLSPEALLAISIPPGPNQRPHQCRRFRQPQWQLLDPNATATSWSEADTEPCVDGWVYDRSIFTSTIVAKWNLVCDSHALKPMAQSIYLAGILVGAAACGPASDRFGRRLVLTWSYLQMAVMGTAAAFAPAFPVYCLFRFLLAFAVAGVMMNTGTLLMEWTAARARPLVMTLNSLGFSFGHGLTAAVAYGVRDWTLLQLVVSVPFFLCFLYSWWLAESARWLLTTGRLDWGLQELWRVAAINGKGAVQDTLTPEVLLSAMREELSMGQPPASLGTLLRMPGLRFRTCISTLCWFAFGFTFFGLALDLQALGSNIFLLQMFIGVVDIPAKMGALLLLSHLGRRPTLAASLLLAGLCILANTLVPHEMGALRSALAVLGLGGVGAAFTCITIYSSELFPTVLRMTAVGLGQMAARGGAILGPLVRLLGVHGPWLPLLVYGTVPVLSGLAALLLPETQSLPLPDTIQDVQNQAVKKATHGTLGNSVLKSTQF

For the compound `CC(C)(Sc1ncccc1-c1ccc(C#N)c2ccccc12)C(=O)O` [Example 4A, 2-(3-(4-Cyanonaphthalen-1-yl)pyridin-2-ylthio)-2-methylpropanoic acid], the EC50 (commonly the concentration that produces a half-maximal response) lay within 50 to 500 nM.
